Measured values taken from patent publication US8778881B2 (priority 2004, dated 2014).
pEC50: −log10 of the molar value. Bridge positions count the residues as written; N and C are the ends. Square brackets hold non-standard residues; d marks the D form. Peptide text beside a SMILES is read from it. Orn = NCCC[C@H](N)C(=O)O

Amino acid sequences for entries named in this document (tags omitted).
UniProt P37288, whole entry: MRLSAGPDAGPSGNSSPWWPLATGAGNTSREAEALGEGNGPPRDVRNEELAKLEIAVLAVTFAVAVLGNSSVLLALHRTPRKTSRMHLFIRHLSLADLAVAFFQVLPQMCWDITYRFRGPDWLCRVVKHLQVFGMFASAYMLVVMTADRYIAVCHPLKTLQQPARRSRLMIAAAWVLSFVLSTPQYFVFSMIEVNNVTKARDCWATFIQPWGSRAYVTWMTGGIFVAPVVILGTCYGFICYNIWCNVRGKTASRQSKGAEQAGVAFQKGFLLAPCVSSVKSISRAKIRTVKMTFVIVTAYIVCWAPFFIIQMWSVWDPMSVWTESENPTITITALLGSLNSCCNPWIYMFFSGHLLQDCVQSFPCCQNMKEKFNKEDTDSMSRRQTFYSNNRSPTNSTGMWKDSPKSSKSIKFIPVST

How the values were obtained:
[1] = biological target: T1, hV1a receptor (Homo sapiens, UniProt P37288); test: hV1a receptor transcriptional reporter (luciferase) agonist assay in HEK-293 cells; type: cell-based; settings: geometric mean; HEK-293 cells transiently transfected, 5 hours exposure, at least three independent experiments
T1 construct: expressed in transfected cells; host or cells: HEK-293 cells (transient transfection)
Experimental: (§1) Agonist activity of compounds on the hV1a receptor was determined in a transcriptional reporter assay by transiently transfecting a hV1a receptor expression DNA into HEK-293 cells in concert with a reporter DNA containing intracellular calcium responsive promoter elements regulating expression of firefly luciferase. See Boss, V., Talpade, D. J., Murphy, T. J. J. Biol. Chem. 1996, May 3; 271(18), 10429-10432 for further guidance on this assay. […] To determine selectivity, compounds were tested in luciferase-based transcriptional reporter assays expressing the human oxytocin (hOT) receptor. Assays for other receptors (hV2, hV1b, rat V1a and rat V2) were also conducted.
(§2) The EC50 value given is the geometric mean expressed in nanomol/L (nM). Selectivity values are given as EC50 ratios.

[2] = biological target: T2, human oxytocin (hOT) receptor (Homo sapiens, UniProt P30559); test: luciferase-based transcriptional reporter assay expressing the human oxytocin (hOT) receptor, for selectivity; type: cell-based; settings: EC50 ratio hOT/hV1a
T2 construct: expressed in transfected cells
T2 sequence (P30559 1-389): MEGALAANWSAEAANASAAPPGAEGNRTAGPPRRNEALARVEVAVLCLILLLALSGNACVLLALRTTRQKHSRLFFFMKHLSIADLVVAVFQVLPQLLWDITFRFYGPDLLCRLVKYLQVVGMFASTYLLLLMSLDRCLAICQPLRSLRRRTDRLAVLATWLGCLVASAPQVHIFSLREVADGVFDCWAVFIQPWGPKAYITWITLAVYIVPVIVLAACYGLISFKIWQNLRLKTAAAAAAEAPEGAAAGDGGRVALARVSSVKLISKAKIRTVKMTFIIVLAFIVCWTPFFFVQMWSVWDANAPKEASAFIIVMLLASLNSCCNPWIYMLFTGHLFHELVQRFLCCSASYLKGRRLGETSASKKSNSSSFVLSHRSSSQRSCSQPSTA
Experimental: as §1, §2

[3] = system: anaesthetised Sprague-Dawley male rats; test: in vivo duration of action, blood pressure test in anaesthetised rats; parameters: species or system rat; settings: ratio of decay rate of diastolic blood pressure response to standard AVP dose (0.1 nmol/kg i.v.) to decay rate for equieffective dose of compound; dibenamine-pretreated rats

CC[C@H](C)[C@@H]1NC(=O)[C@H](Cc2ccccc2)NC(=O)[C@@H](N)CSSC[C@@H](C(=O)N2CCC[C@H]2C(=O)N[C@@H](CCCN)C(=O)NCC(N)=O)NC(=O)[C@H](CC(N)=O)NC(=O)[C@H](CCC(N)=O)NC1=O [[Phe2, Orn8]OT, [Phe2,Orn8]OT, reference compound] (H-CFIQNCP[Orn]G-NH2; disulfide 1-6 (inferred); N-terminus and C-terminus assumed)
pEC50 [1]: 9.82 | selectivity hOT/hV1a [2]: 60 | in vivo duration relative to AVP [3]: 1.9
